Data on 28 compounds can be found in patent US9260425B2 (Genetech, Inc., priority 2011, dated 2016).

Chains of the proteins cited; added tags and fusions are not shown.
UniProt P11309, whole entry: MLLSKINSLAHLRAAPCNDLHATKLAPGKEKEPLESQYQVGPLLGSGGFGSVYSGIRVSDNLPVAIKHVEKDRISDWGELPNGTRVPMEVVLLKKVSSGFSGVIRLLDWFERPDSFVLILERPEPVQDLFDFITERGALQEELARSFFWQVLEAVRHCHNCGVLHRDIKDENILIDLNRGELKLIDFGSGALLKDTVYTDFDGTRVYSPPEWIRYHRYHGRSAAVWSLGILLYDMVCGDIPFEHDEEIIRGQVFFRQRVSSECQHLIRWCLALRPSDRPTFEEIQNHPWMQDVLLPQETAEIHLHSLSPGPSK

The assay deals with Pim-1 (Homo sapiens (Human), UniProt P11309). Briefly: Pim kinase binding activity assay (Example 901), PIM-1 enzyme, Caliper microfluidic peptide phosphorylation. Format: biochemical. As to conditions: 20 pM PIM-1, 10 μM ATP, 1 μM FAM-peptide, 90 minutes at room temperature. As to the method:
Pim Kinase Binding Activity
A fluorescent-labeled Pim-specific peptide substrate, was custom synthesized by American Peptide Company (Sunnyvale, Calif.). Reaction Buffer contained 10 mM HEPES, pH 7.2, 10 mM MgCl2, 0.01% Tween 20, 2 mM DTT. Termination Buffer contained 190 mM HEPES, pH 7.2, 0.015% Brij-35, 0.2% Coating Reagent 3 (Caliper Life Sciences, Hopkinton, Mass.), 20 mM EDTA. Separation Buffer contained 100 mM HEPES, pH 7.2, 0.015% Brij-35, 0.1% Coating Reagent 3, 1:200 Coating Reagent 8 (Caliper Life Sciences, Hopkinton, Mass.), 10 mM EDTA and 5% DMSO.
PIM reactions were carried out in a final volume of 10 μL per well in a 384-well plate. A standard enzymatic reaction, initiated by the addition of 5 μL 2×ATP and test compound to 5 μL of 2× enzyme and FAM-peptide, contained 20 pM PIM-1, 50 pM PIM-2, or 55 pM PIM-3, 1 μM FAM-peptide, and 10 μM ATP, in Reaction Buffer. After 90 minutes of incubation at room temperature, the phosphorylation reaction was stopped by the addition of 10 μL Termination Buffer. The product and substrate in each independent reaction were separated on a 12-sipper microfluidic chip (Caliper Life Sciences, Hopkinton, Mass.) run on a Caliper LC3000® (Caliper Life Sciences, Hopkinton, Mass.). The separation of product and substrate was optimized by choosing voltages and pressure using Caliper's Optimizer software (Hopkinton, Mass.). […] The product and substrate fluorophore were excited at 488 nm and detected at 530 nm. Substrate conversion was calculated from the electropherogram using HTS Well Analyzer software (Caliper Life Sciences, Hopkinton, Mass.). Ki values for the test compound were calculated.
`N[C@@H]1CCCN(c2ccncc2-c2cc3c(-c4ccccc4F)n[nH]c3cn2)C1` [Example 141, (R)1-(3-(3-(2-fluorophenyl)-1H-pyrazolo[3,4-c]pyridin-5-yl)pyridin-4-yl)piperidin-3-amine]: the affinity, expressed as Ki, was 142 nM. To `N[C@@H]1CCCN(c2cncc(-c3cc4c(-c5ccccc5F)n[nH]c4cn3)n2)C1` [Example 153, (R)-1-(6-(3-(2-fluorophenyl)-1H-pyrazolo[3,4-c]pyridin-5-yl)pyrazin-2-yl)piperidin-3-amine] belongs 0.114 nM.

In the case of `Cn1cc(-c2cc3c(-c4cccc(N5CCC[C@@H](N)C5)n4)n[nH]c3cn2)cn1` [Example 177, (R)-1-(6-(5-(1-methyl-1H-pyrazol-4-yl)-1H-pyrazolo[3,4-c]pyridin-3-yl)pyridin-2-yl)piperidin-3-amine], the affinity corresponds to a Ki of 0.0355 nM. In the case of `N[C@H]1CCCN(c2cncc(-c3cc4c(-c5ccccc5F)n[nH]c4cn3)n2)CC1` [Example 179, (S)-1-(6-(3-(2-fluorophenyl)-1H-pyrazolo[3,4-c]pyridin-5-yl)pyrazin-2-yl)azepan-4-amine], affinity was put at a Ki of 0.061 nM. To `Cn1cc(-c2cc3c(-c4cccc(N5CCCC(N)CC5)n4)n[nH]c3cn2)cn1` (stereo not shown) [Example 188, 1-(6-(5-(1-methyl-1H-pyrazol-4-yl)-1H-pyrazolo[3,4-c]pyridin-3-yl)pyridin-2-yl)azepan-4-amine] belongs 0.039 nM; to `Fc1ccccc1-c1n[nH]c2cnc(-c3cnccc3OC[C@@H]3CCCNC3)cc12` [Example 199, (R)-3-(2-fluorophenyl)-5-(4-(piperidin-3-ylmethoxy)pyridin-3-yl)-1H-pyrazolo[3,4-c]pyridine], 0.354 nM. To `Fc1ccccc1-c1n[nH]c2cnc(-c3cnccc3OC[C@H]3CCCNC3)cc12` [Example 201, (S)-3-(2-fluorophenyl)-5-(4-(piperidin-3-ylmethoxy)pyridin-3-yl)-1H-pyrazolo[3,4-c]pyridine] belongs 1.52 nM; to `Fc1ccccc1-c1n[nH]c2cnc(-c3cnccc3NCC3CCNCC3)cc12` [Example 207, 3-(3-(2-fluorophenyl)-1H-pyrazolo[3,4-c]pyridin-5-yl)-N-(piperidin-4-ylmethyl)pyridin-4-amine], 22.7 nM. To `N[C@@H]1CCCN(c2cccc(-c3n[nH]c4cnc(-c5cncc(F)c5)cc34)n2)C1` [Example 210, (R)-1-(6-(5-(5-fluoropyridin-3-yl)-1H-pyrazolo[3,4-c]pyridin-3-yl)pyridin-2-yl)piperidin-3-amine] belongs 0.206 nM; to `Nc1ncccc1-c1cc2c(-c3cccc(N4CCNCC4)n3)n[nH]c2cn1` [Example 238, 3-(3-(6-(piperazin-1-yl)pyridin-2-yl)-1H-pyrazolo[3,4-c]pyridin-5-yl)pyridin-2-amine], 0.267 nM. Turning to `O=C1CN(c2cccc(-c3n[nH]c4cnc(-c5cccnc5)cc34)n2)CCN1` [Example 279, 4-(6-(5-(pyridin-3-yl)-1H-pyrazolo[3,4-c]pyridin-3-yl)pyridin-2-yl)piperazin-2-one], the inhibitory constant (Ki) (usually a dissociation constant, usually derived from enzyme kinetics or from competition with a known ligand) is 0.351 nM. The same measure for `O=C1CNCCN1c1cccc(-c2n[nH]c3cnc(-c4cccnc4)cc23)n1` [Example 301, 1-(6-(5-(pyridin-3-yl)-1H-pyrazolo[3,4-c]pyridin-3-yl)pyridin-2-yl)piperazin-2-one]: 2.95 nM; for `N[C@H]1CCN(c2cccc(-c3n[nH]c4cnc(-c5cccnc5)cc34)n2)C1=O` [Example 304, (S)-3-amino-1-(6-(5-(pyridin-3-yl)-1H-pyrazolo[3,4-c]pyridin-3-yl)pyridin-2-yl)pyrrolidin-2-one]: 0.556 nM.

In turn, `Cc1ccc(-c2n[nH]c3cnc(-c4cccnc4)cc23)nc1N1CCC[C@H](N)CC1` [Example 314, (S)-1-(3-methyl-6-(5-(pyridin-3-yl)-1H-pyrazolo[3,4-c]pyridin-3-yl)pyridin-2-yl)azepan-4-amine] gave an inhibition constant Ki of 0.025 nM. To `N[C@H]1CCCN(c2cccc(-c3n[nH]c4cnc(-c5cncs5)cc34)n2)C1` [Example 349, (S)-1-(6-(5-(thiazol-5-yl)-1H-pyrazolo[3,4-c]pyridin-3-yl)pyridin-2-yl)piperidin-3-amine] belongs 0.035 nM; to `N[C@@H]1CCCN(c2cccc(-c3n[nH]c4cnc(-c5cncs5)cc34)n2)C1` [Example 350, (R)-1-(6-(5-(thiazol-5-yl)-1H-pyrazolo[3,4-c]pyridin-3-yl)pyridin-2-yl)piperidin-3-amine], 0.036 nM. Take `Cn1ccc(-c2cc3c(-c4cccc(N5CCNCC5)n4)n[nH]c3cn2)cc1=O` [Example 366, 1-methyl-4-(3-(6-(piperazin-1-yl)pyridin-2-yl)-1H-pyrazolo[3,4-c]pyridin-5-yl)pyridin-2(1H)-one]: the affinity corresponds to a Ki of 0.97 nM. For `COCCn1cc(-c2cc3c(-c4cccc(N5CCNCC5)n4)n[nH]c3cn2)cn1` [Example 382, 5-(1-(2-methoxyethyl)-1H-pyrazol-4-yl)-3-(6-(piperazin-1-yl)pyridin-2-yl)-1H-pyrazolo[3,4-c]pyridine], the inhibition constant Ki came to 0.06 nM. To `N[C@H]1CCCN(c2nc(-c3n[nH]c4cnc(-c5cccnc5)cc34)ccc2C(F)(F)F)C1` [Example 386, (S)-1-(6-(5-(pyridin-3-yl)-1H-pyrazolo[3,4-c]pyridin-3-yl)-3-(trifluoromethyl)pyridin-2-yl)piperidin-3-amine] belongs 0.117 nM.

Regarding `CC(C)(O)Cn1cc(-c2cc3c(-c4cccc(N5CCNCC5)n4)n[nH]c3cn2)cn1` [Example 388, 2-methyl-1-(4-(3-(6-(piperazin-1-yl)pyridin-2-yl)-1H-pyrazolo[3,4-c]pyridin-5-yl)-1H-pyrazol-1-yl)propan-2-ol], the Ki was 0.138 nM. Compound `Cn1cc(-c2cc3c(-c4cccc(N5CCC[C@H](O)C5)n4)n[nH]c3cn2)cn1` [Example 442, (S)-1-(6-(5-(1-methyl-1H-pyrazol-4-yl)-1H-pyrazolo[3,4-c]pyridin-3-yl)pyridin-2-yl)piperidin-3-ol] gave a Ki of 0.154 nM. To `CCn1cc(-c2cc3c(-c4cccc(N5C[C@@H](C)N[C@@H](C)C5)n4)n[nH]c3cn2)cn1` [Example 444, 3-(6-((3S,5R)-3,5-dimethylpiperazin-1-yl)pyridin-2-yl)-5-(1-ethyl-1H-pyrazol-4-yl)-1H-pyrazolo[3,4-c]pyridine] belongs 0.07 nM; to `CCn1cc(-c2cc3c(-c4cccc(N5CCOCC5)n4)n[nH]c3cn2)cn1` [Example 450, 4-(6-(5-(1-ethyl-1H-pyrazol-4-yl)-1H-pyrazolo[3,4-c]pyridin-3-yl)pyridin-2-yl)morpholine], 0.581 nM; to `Cn1cc(-c2cc3c(-c4cccc(N5CCC[C@@H](O)C5)n4)n[nH]c3cn2)cn1` [Example 451, (R)-1-(6-(5-(1-methyl-1H-pyrazol-4-yl)-1H-pyrazolo[3,4-c]pyridin-3-yl)pyridin-2-yl)piperidin-3-ol], 0.106 nM. The same measure for `N[C@@H]1CCCC(c2cccc(-c3n[nH]c4cnc(-c5cccnc5)cc34)n2)C1` (stereo partly drawn) [Example 458, (1R)-3-(6-(5-(pyridin-3-yl)-1H-pyrazolo[3,4-c]pyridin-3-yl)pyridin-2-yl)cyclohexanamine]: 0.03 nM; for `N[C@H]1CCCC(c2cccc(-c3n[nH]c4cnc(-c5cccnc5)cc34)n2)C1` (stereo partly drawn) [Example 459, (1S)-3-(6-(5-(pyridin-3-yl)-1H-pyrazolo[3,4-c]pyridin-3-yl)pyridin-2-yl)cyclohexanamine]: 0.045 nM.

`c1cc(-c2n[nH]c3cnc(-c4cnn(CC5CC5)c4)cc23)nc(N2CCNCC2)c1` [Example 497, 5-(1-(cyclopropylmethyl)-1H-pyrazol-4-yl)-3-(6-(piperazin-1-yl)pyridin-2-yl)-1H-pyrazolo[3,4-c]pyridine] registered a Ki of 0.021 nM.

For the compound `CCn1cc(-c2cc3c(-c4cccc(N5CCNCC(C#N)C5)n4)n[nH]c3cn2)cn1` (stereo not shown) [Example 499, 1-(6-(5-(1-ethyl-1H-pyrazol-4-yl)-1H-pyrazolo[3,4-c]pyridin-3-yl)pyridin-2-yl)-1,4-diazepane-6-carbonitrile], the Ki is 0.072 nM.
